This is an account of results in ChEMBL document CHEMBL1131091, “Discovery of potent, achiral matrix metalloproteinase inhibitors” (J Med Chem, 1998).

Chains of the proteins cited; added tags and fusions are not shown. Lines headed by an entry give the natural chain unless they say otherwise; changes in a name come on top.
UniProt P08254: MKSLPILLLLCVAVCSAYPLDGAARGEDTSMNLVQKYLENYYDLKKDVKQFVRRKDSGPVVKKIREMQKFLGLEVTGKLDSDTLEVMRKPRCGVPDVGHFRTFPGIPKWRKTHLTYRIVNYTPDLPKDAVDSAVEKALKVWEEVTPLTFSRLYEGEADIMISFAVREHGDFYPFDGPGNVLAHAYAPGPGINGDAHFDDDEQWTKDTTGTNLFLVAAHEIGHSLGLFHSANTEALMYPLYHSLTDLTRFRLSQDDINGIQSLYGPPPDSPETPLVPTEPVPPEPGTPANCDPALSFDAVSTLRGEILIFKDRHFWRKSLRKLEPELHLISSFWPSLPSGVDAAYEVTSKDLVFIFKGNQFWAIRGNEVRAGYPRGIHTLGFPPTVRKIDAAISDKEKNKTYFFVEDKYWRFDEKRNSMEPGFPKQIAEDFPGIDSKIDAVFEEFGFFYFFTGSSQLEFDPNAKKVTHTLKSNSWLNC

For this experiment, the target named is Stromelysin-1 (Homo sapiens, UniProt P08254). Kind of experiment: Inhibition of Matrix metalloprotease-3.

Compound `COc1ccc(S(=O)(=O)N2CC(C)(C)CN(S(=O)(=O)c3ccc(OC)cc3)C2C(=O)NO)cc1` came in with an IC50 of 18.4 nM.
